The source of these data is US10112926B2 (priority 2014, dated 2018).

The chains behind the UniProt entries cited, without tags or fusion partners. Where a name states a change or a piece, a line headed by the entry shows the natural chain unless it says otherwise.
UniProt P42336, whole entry, looked up: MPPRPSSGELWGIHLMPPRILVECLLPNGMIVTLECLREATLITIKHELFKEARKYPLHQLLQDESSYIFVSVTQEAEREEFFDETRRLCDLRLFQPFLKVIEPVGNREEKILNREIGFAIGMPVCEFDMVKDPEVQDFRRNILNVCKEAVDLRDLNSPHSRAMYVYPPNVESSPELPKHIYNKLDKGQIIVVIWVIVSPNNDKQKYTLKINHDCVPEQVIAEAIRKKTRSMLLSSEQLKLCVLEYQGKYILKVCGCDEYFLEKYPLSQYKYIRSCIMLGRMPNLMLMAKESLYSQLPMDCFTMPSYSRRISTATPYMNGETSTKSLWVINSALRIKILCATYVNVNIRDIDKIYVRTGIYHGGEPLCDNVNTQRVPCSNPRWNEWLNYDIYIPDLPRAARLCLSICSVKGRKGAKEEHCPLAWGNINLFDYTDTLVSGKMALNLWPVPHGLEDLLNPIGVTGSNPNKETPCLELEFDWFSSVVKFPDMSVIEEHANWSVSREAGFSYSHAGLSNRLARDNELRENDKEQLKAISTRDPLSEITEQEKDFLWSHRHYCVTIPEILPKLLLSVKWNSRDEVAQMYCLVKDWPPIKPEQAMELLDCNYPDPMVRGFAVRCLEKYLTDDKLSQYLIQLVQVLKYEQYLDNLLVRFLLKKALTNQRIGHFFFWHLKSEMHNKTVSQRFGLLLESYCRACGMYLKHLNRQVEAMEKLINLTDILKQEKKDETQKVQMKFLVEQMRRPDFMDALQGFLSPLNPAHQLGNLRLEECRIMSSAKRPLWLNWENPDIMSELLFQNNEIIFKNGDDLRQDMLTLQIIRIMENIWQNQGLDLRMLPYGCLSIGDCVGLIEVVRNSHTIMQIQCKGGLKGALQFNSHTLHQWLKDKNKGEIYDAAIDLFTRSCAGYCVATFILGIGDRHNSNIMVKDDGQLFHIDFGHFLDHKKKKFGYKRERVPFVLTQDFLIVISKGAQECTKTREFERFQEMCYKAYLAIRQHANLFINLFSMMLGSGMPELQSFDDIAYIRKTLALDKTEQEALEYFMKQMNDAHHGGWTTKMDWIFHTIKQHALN
UniProt P42338: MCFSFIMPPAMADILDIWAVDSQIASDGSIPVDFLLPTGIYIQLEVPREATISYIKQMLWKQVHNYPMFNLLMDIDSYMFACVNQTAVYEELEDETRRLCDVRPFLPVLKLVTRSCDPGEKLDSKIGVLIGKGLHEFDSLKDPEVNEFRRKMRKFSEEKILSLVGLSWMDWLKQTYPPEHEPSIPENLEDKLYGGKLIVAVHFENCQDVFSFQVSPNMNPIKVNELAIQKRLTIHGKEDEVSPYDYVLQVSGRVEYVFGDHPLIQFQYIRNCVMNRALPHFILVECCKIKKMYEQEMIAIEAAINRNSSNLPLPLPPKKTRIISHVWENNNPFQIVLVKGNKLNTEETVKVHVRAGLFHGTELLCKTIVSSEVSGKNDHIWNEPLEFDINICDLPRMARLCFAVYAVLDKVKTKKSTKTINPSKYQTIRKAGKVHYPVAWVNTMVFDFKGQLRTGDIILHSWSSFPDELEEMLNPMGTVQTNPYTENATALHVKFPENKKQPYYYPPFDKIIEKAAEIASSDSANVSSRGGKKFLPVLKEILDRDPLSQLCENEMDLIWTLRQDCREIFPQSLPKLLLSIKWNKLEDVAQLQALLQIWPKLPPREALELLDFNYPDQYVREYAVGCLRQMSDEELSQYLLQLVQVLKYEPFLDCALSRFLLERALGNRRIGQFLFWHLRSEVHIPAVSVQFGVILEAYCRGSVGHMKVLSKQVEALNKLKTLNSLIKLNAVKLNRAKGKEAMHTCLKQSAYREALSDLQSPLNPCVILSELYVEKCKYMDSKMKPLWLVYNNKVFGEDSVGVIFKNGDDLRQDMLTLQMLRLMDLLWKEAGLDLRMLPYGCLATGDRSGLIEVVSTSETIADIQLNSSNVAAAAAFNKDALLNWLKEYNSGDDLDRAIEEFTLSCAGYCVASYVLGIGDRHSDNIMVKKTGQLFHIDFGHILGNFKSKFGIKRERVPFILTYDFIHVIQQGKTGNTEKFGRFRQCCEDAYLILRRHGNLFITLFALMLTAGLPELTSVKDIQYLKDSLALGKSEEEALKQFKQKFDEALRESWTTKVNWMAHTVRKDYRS

Structures can show the parent of a compound that is named as a salt.

Test [1] has as its target PI 3-kinase alpha (Homo sapiens (Human), UniProt P42336). Particulars: read-out: Assay A PI3Kα IC50.
Test [2] concerns the target PI 3-kinase beta (Homo sapiens (Human), UniProt P42338). To be noted: read-out: Assay B PI3Kβ IC50.
Test [3] concerns the target PI 3-kinase alpha (Rat-1 pBABEpuro Myr-HA-hp110 alpha cells) (Homo sapiens (Human), UniProt P42336). Kind of test: cell-based.
The target of test [4] is PI 3-kinase beta (Rat-1 pBABEpuro Myr-HA-hp110 beta cells) (Homo sapiens (Human), UniProt P42338). Kind of test: cell-based.

As for `Cc1cc(-c2cc(-c3cc(S(=O)(=O)N4CCOC[C@@H]4C)ccc3C)cnc2N)on1` [Example 19.5, (S)-5-(2-methyl-5-((3-methylmorpholino)sulfon-yl)phenyl)-3-(3-methylisoxazol-5-yl)pyridin-2-amine trifluoroacetic acid salt], the IC50 in test [1] was 2100 nM; in test [2] it was 9200 nM; in test [3] it was > 10000 nM; in test [4] it was > 10000 nM.

Consider `COCC1CCN(S(=O)(=O)c2ccc(C)c(-c3cnc(N)c(-c4cc(C)no4)c3)c2)CC1` [Example 19.18, 5-(5-((4-(methoxymethyl)piperidin-1-yl)sulfonyl)-2-methylphenyl)-3-(3-methylisoxazol-5-yl)pyridin-2-amine trifluoroacetic acid salt], for which the IC50 is 760 nM in test [1], > 10000 nM in test [2], 9530 nM in test [3] and > 10000 nM in test [4].

As for `Cc1cc(-c2cc(-c3cc(S(=O)(=O)N4CCC[C@H]4CO)ccc3C)cnc2N)on1` [Example 19.15, (S)-(1-((3-(6-amino-5-(3-methylisoxazol-5-yl)pyridin-3-yl)-4-methylphenyl)sulfonyl)pyrrolidin-2-yl)methanol trifluoroacetic acid salt], the IC50 is 790 nM in test [1], > 10000 nM in test [2], > 10000 nM in test [3] and > 10000 nM in test [4].

Turning to `Cc1ncc(-c2cc(-c3cc(S(=O)(=O)NCC4CCCOC4)ccc3C)cnc2N)o1` (stereo not shown) [Example 104.8, 3-(6-amino-5-(2-methyloxazol-5-yl)pyridin-3-yl)-4-methyl-N-((tetrahydro-2H-pyran-3-yl)methyl)benzenesulfon-amide], the IC50 in test [1] was found to be 150 nM; in test [3], 2550 nM.

For `Cc1ncc(-c2cc(-c3cc(S(=O)(=O)NCC4CC4)ccc3C)cnc2N)o1` [Example 104.12, 3-(6-amino-5-(2-methyloxazol-5-yl)pyridin-3-yl)-N-(cyclopropylmethyl)-4-methylbenzenesulfon-amide], the IC50 came to 130 nM in test [1], 950 nM in test [2], 1790 nM in test [3] and 3810 nM in test [4].

On to `Cc1cc(-c2cc(-c3cc(S(=O)(=O)N[C@@H]4CNC[C@H]4O)ccc3C)cnc2N)on1` [Example 19.4, 3-(6-amino-5-(3-methylisoxazol-5-yl)pyridin-3-yl)-N-(trans-4-hydroxypyrrolidin-3-yl)-4-methylbenzenesulfon-amide acetic acid salt], for which the IC50 is 460 nM in test [1], 1700 nM in test [2], > 10000 nM in test [3] and > 10000 nM in test [4].

For the compound `Cc1cc(-c2cc(-c3cc(S(=O)(=O)NC4CCOC4=O)ccc3C)cnc2N)on1` (stereo not shown) [Example 19.2, 3-(6-amino-5-(3-methylisoxazol-5-yl)pyridin-3-yl)-4-methyl-N-(2-oxotetrahydrofuran-3-yl)benzene sulfonamide trifluoroacetic acid salt], the IC50 in test [1] was 680 nM; in test [2] it was 1900 nM; in test [3] it was > 10000 nM; in test [4], > 10000 nM.

Turning to `Cc1ccc(S(=O)(=O)NCC(C)(C)O)cc1-c1cnc(N)c(-c2ncco2)c1` [Example 94b, 3-(6-amino-5-(oxazol-2-yl)pyridin-3-yl)-N-(2-hydroxy-2-methylpropyl)-4-methylbenzenesulfonamide], the IC50 in test [1] is 750 nM; in test [3], > 10000 nM; in test [4] it was > 10000 nM.

For `Cc1nnc(-c2cc(-c3cc(S(=O)(=O)NCC(C)(C)O)ccc3C)cnc2N)s1` [Example 102, 3-(6-amino-5-(5-methyl-1,3,4-thiadiazol-2-yl)pyridin-3-yl)-N-(2-hydroxy-2-methylpropyl)-4-methylbenzenesulfonamide], the IC50 in test [1] was 3100 nM; in test [2], 1750 nM; in test [3] it was > 10000 nM; in test [4], > 10000 nM.

As for `Cc1ncc(-c2cc(-c3cc(S(=O)(=O)NCC4CC(O)C4)ccc3C)cnc2N)o1` (stereo not shown) [Example 104.1, 3-(6-amino-5-(2-methyloxazol-5-yl)pyridin-3-yl)-N-((3-hydroxycyclobutyl)methyl)-4-methylbenzenesulfon-amide], the IC50 in test [1] is 180 nM; in test [2], > 10000 nM; in test [3] it was 3250 nM; in test [4], > 10000 nM.

As to `Cc1ncc(-c2cc(-c3cc(S(=O)(=O)NC4CC4)ccc3C)cnc2N)o1` [Example 104.14, 3-(6-amino-5-(2-methyloxazol-5-yl)pyridin-3-yl)-N-cyclopropyl-4-methylbenzenesulfon-amide], the IC50 stood at 210 nM in test [1], 1700 nM in test [2], 1460 nM in test [3] and 6470 nM in test [4].

On to `Cc1cc(-c2cc(-c3cc(S(=O)(=O)N[C@H]4CC[C@H](N)CC4)ccc3C)cnc2N)on1` [Example 19.3, 3-(6-amino-5-(3-methylisoxazol-5-yl)pyridin-3-yl)-N-(trans-4-aminocyclohexyl)-4-methylbenzenesulfon-amide acetic acid salt], for which the IC50 in test [1] is 1300 nM; in test [2], 680 nM; in test [3], > 10000 nM; in test [4] it was > 10000 nM.

In the case of `Cc1ncc(-c2cc(-c3cc(S(=O)(=O)NCC(C)(C)CO)ccc3C)cnc2N)o1` [Example 104.2, 3-(6-amino-5-(2-methyloxazol-5-yl)pyridin-3-yl)-N-(3-hydroxy-2,2-dimethylpropyl)-4-methylbenzenesulfon-amide], the IC50 in test [1] is 310 nM; in test [2], > 10000 nM; in test [3], 2930 nM; in test [4], 3260 nM.

As to `Cc1ccc(S(=O)(=O)NCC(C)(C)O)cc1-c1cnc(N)c(-c2ccn(C)n2)c1` [Example 110, 3-(6-amino-5-(1-methyl-1H-pyrazol-3-yl)pyridin-3-yl)-N-(2-hydroxy-2-methylpropyl)-4-methylbenzenesulfonamide], the IC50 in test [1] is 2750 nM; in test [2] it was 9500 nM; in test [3] it was 9310 nM; in test [4], > 10000 nM.

As for `Cc1cc(-c2cc(-c3cc(S(=O)(=O)N4CCOC[C@H]4C)ccc3C)cnc2N)on1` [Example 19.6, (R)-5-(2-methyl-5-((3-methylmorpholino)sulfon-yl)phenyl)-3-(3-methylisoxazol-5-yl)pyridin-2-amine trifluoroacetic acid salt], the IC50 in test [1] is 700 nM; in test [2], 4900 nM; in test [3], > 10000 nM; in test [4], > 10000 nM.

Turning to `Cc1ncc(-c2cc(-c3cc(S(=O)(=O)NCC4(O)COC4)ccc3C)cnc2N)o1` [Example 104.7, 3-(6-amino-5-(2-methyloxazol-5-yl)pyridin-3-yl)-N-((3-hydroxyoxetan-3-yl)methyl)-4-methylbenzenesulfon-amide], the IC50 in test [1] is 310 nM; in test [2], > 10000 nM; in test [3], > 10000 nM; in test [4], > 10000 nM.

Regarding `Cc1cc(-c2cc(-c3cc(S(=O)(=O)NO[C@H]4C[C@H](O)C4)ccc3C)cnc2N)on1` [Example 95, trans-3-(6-amino-5-(3-methylisoxazol-5-yl)pyridin-3-yl)-N-((1r,3r)-3-hydroxycyclobutoxy)-4-methylbenzenesulfonamide], the IC50 came out at 100 nM in test [1], 690 nM in test [2], 380 nM in test [3] and 2880 nM in test [4].

Take `Cc1ccc(S(=O)(=O)N2CCN(C)CC2)cc1-c1cnc(N)c(C(=O)c2cccnc2)c1` [(ii), reference compound]: the IC50 in test [3] and in test [4] was > 10000 nM each time.

`Cc1ncc(-c2cc(-c3cc(S(=O)(=O)NCC(F)(F)F)ccc3C)cnc2N)o1` [Example 104.9, 3-(6-amino-5-(2-methyloxazol-5-yl)pyridin-3-yl)-4-methyl-N-(2,2,2-trifluoroethyl)benzene-sulfonamide]: the IC50 amounted to 220 nM in test [1], 1300 nM in test [2], 2620 nM in test [3] and 3490 nM in test [4].

Take `Cc1ccc(S(=O)(=O)NCC(C)(C)O)cc1-c1cnc(N)c(-c2cnco2)c1` [Example 94a, 3-(6-amino-5-(oxazol-5-yl)pyridin-3-yl)-N-(2-hydroxy-2-methylpropyl)-4-methylbenzenesulfonamide]: the IC50 was 810 nM in test [1], 1800 nM in test [2], 3860 nM in test [3] and > 10000 nM in test [4].

On to `Cc1ncc(-c2cc(-c3cc(S(=O)(=O)N[C@H]4CC[C@H](CO)CC4)ccc3C)cnc2N)o1` [Example 104.11, 3-(6-amino-5-(2-methyloxazol-5-yl)pyridin-3-yl)-N-((1r,4r)-4-(hydroxymethyl)cyclo-hexyl)-4-methylbenzenesulfon-amide], for which the IC50 is 30 nM in test [1], 1590 nM in test [3] and 2630 nM in test [4].

As for `Cc1cc(-c2cc(-c3cc(S(=O)(=O)N[C@@H](C)C4CC4)ccc3C)cnc2N)on1` [Example 19.13, (S)-3-(6-amino-5-(3-methylisoxazol-5-yl)pyridin-3-yl)-N-(1-cyclopropylethyl)-4-methylbenzenesulfon-amide trifluoroacetic acid salt], the IC50 was 610 nM in test [1], 3100 nM in test [2], 6330 nM in test [3] and > 10000 nM in test [4].

Consider `Cc1cc(-c2cc(-c3cc(S(=O)(=O)N4C[C@H](C)[C@@H](O)C4)ccc3C)cnc2N)on1` (relative stereo) [Example 101.3, trans-1-((3-(6-amino-5-(3-methylisoxazol-5-yl)pyridin-3-yl)-4-methylphenyl)sulfonyl)-4-methylpyrrolidin-3-ol], for which, in test [3], the IC50 is > 10000 nM.

As for `Cc1ncc(-c2cc(-c3cc(S(=O)(=O)NCC4COC4)ccc3C)cnc2N)o1` [Example 104.3, 3-(6-amino-5-(2-methyloxazol-5-yl)pyridin-3-yl)-4-methyl-N-(oxetan-3-ylmethyl)benzenesulfon-amide], the IC50 in test [1] is 580 nM; in test [3], 5630 nM.

The IC50 is the concentration at which inhibition is half-maximal.
